Tested on: rat myocardial ischemia-reperfusion model
Assay: Rat myocardial ischemia-reperfusion model (30-min LAD occlusion, 4-hr reperfusion), infarct size
Assay type: in vivo
Settings: i.v. infusion before LAD ligation; terbutaline 100 μg/kg, CGRP 30 ng/kg or combination; FIG. 9
Procedure: CGRP-receptor blockade was achieved via i.v. infusion of calcitonin-gene related peptide receptor antagonist CGRP8-37 (10 μg kg/kg) 30 min before the onset of myocardial ischemia by ligating coronary artery. Selective δ-opioid agonist DPDPE reduced infarct size by 57% compared to the control group (25±3% vs 11±2%).
Rat MI model is created by 30-min LAD ligation followed by 4-h reperfusion. Panels 8A and 8B show infarct size (30% of area-at-risk) in rats receiving saline (control) (FIG. 8A) and combination of terbutaline (1 mg/kg)+CGRP (30 ng/kg) infused at 20-min after LAD ligation (FIG. 8B), respectively. A necrotic infarct area 10 is visible as a light gray, as is the area-at-risk 11 intermediate gray supplied by LAD. Dark zone 12 is non-risk zone supplied by right and circumflex coronary arteries.
(T+C)H: with high dose of terbutaline 1 mg/kg.
Experimental Myocardial Ischemia-Reperfusion Model. The rat myocardial ischemia-reperfusion model will be used (Birnbaum et al., 2005; Huang et al., 2007). […]
To determine whether δ-opioid-initiated infarct-size-reduction is partially mediated by CGRP or epinephrine, or totally dependent on synergistic action of both, DPDPE will be infused in the presence of CGRP8-37, ICI-118,551. or the combination of CGRP8-37 plus ICI-118,551. […] Arterial blood pressure and heart rate will be monitored continuously throughout the experiments.

## CGRP: calcitonin gene-related peptide, 37 amino acid neuropeptide, vasodilator, infused exogenously (ACDTATCVTHRLAGLLSRSGGVVKNNFVPTNVGSKAF; Calcitonin gene-related peptide 1; UniProt P06881 83-119, looked up)
  effect on infarct size, drug delivered before LAD ligation / acute MI: no significant infarct-size-reduction
